Results: ChEMBL document CHEMBL1144175 (Bioorg Med Chem, 2008)

Chains of the proteins cited; added tags and fusions are not shown.
UniProt P0DMS8, whole entry: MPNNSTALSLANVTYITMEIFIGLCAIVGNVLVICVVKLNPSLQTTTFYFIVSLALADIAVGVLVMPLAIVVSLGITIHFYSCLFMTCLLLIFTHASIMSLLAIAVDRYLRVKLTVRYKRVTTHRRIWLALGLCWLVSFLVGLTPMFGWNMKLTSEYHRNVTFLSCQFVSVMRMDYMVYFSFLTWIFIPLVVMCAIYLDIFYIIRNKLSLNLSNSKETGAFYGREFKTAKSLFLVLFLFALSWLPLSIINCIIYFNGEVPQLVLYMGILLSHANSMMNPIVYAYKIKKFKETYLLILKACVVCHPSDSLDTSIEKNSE

Target: Adenosine receptor A3 (Homo sapiens, UniProt P0DMS8)

**Q.** With `O[C@@H]1[C@H](O)[C@@H]2C[C@@H]2[C@H]1n1cnc2c(NCc3cccc(Cl)c3)nc(Cl)nc21` as the compound, how does the Ki read?
**A.** Its Ki is 1.06 nM.
